Test: Murine toxicity (maximum tolerated dose)
Conditions: IP, A431 xenograft mice; tested form: bromide

SMILES: Cn1c(C[N+](C)(C)C/C=C/C(=O)Nc2ccc3ncnc(Nc4cccc(Br)c4)c3c2)ccc1[N+](=O)[O-].[Br-] [Compound 19, (2E)-4-{[4-(3-bromoanilino)-6-quinazolinyl]amino}-N,N-dimethyl-N-[(1-methyl-5-nitro-1H-pyrrol-2-yl)methyl]-4-oxo-2-buten-1-ammonium bromide]
- q4dx3 MTD: 75 μmol/kg/dose

— patent publication US9073916B2, “Prodrug forms of kinase inhibitors and their use in therapy” (AUCKLAND UNISERVICES LIMITED, priority 2009, dated 2015)
